The target of this assay is T1, 5-hydroxytryptamine receptor 2C (Rattus norvegicus, UniProt P08909).
T1 sequence (P08909 whole entry): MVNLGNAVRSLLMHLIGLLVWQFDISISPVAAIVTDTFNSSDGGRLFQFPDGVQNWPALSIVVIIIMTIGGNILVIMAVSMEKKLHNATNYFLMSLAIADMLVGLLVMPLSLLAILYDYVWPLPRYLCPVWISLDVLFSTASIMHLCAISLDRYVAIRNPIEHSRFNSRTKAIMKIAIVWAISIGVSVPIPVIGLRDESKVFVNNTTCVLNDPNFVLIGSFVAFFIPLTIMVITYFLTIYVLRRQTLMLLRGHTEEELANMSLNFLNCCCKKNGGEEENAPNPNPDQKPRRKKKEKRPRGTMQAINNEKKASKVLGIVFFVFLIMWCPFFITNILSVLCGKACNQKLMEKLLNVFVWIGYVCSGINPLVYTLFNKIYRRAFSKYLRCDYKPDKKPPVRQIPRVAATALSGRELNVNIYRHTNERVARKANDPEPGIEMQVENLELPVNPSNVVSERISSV

Among the data in BindingDB's records for doi:10.1111/j.1749-6632.1998.tb10185.x (Albany Medical College, 1998) are Ki values, retold here.

What is called Ki is a dissociation constant, usually derived from enzyme kinetics or from competition with a known ligand. In turn, `COc1cc(CC(C)N)c(OC)cc1Br` (stereo not drawn) [2-(4-Bromo-2,5-dimethoxy-phenyl)-1-methyl-ethylamine((-)-DOB)] registered a Ki of 152 nM.
